From EP1359152B1, “Diazabicyclic derivatives as nicotinic acetylcholine receptor ligands” (ABBOTT LABORATORIES, priority 1999, dated 2000)
Structures can show the parent of a compound that is named as a salt.

Chains of the proteins cited; added tags and fusions are not shown. Residues count along the entry.
UniProt P09483, 31-630: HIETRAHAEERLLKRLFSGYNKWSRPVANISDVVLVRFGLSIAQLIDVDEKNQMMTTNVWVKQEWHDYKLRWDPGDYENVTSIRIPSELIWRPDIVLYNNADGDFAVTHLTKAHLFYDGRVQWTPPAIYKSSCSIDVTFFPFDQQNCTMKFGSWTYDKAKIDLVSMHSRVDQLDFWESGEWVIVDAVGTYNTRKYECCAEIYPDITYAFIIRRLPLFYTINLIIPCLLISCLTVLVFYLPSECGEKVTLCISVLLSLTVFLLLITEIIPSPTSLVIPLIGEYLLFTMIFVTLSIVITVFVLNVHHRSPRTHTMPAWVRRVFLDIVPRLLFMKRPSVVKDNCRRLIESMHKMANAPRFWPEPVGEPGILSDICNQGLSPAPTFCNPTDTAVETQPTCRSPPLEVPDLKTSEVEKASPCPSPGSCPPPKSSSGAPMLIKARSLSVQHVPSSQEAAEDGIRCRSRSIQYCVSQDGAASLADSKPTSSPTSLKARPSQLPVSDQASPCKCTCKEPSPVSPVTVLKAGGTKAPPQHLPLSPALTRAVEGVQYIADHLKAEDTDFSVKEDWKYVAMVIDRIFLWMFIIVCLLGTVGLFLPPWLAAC
UniProt P12390, 25-500: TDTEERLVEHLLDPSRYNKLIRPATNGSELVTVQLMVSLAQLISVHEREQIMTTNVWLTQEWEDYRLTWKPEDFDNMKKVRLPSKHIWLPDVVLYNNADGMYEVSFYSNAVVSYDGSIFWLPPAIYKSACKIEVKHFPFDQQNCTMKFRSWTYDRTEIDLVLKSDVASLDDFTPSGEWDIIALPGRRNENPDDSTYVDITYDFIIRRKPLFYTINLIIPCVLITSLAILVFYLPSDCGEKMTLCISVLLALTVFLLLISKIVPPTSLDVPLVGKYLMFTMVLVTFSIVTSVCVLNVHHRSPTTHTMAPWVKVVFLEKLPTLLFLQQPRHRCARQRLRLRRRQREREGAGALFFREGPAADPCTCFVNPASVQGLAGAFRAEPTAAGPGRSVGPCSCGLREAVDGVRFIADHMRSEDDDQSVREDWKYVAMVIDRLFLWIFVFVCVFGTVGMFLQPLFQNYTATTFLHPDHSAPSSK

Target: T1, neuronal nicotinic acetylcholine receptors (Rattus norvegicus, UniProt P09483+P12390)
T1 construct: crude synaptic membrane preparations from whole rat brain; from tissue; host or cells: whole rat brain, crude synaptic membranes
Experiment: [3H]-cytisine binding to neuronal nicotinic acetylcholine receptors, crude synaptic membranes from whole rat brain
Procedure: The In Vitro protocols for determination of nicotinic acetylcholine channel receptor binding potencies of ligands were determined as follows.
Washed membranes were stored at-80 °C prior to use. Frozen aliquots were slowly thawed and resuspended in 20 volumes of buffer (containing: 120 mM NaCl, 5 mM KCI, 2 mM MgCl2, 2 mM CaCl2 and 50 mM Tris-Cl, pH 7.4 @4 °C). After centrifuging at 20,000x g for 15 minutes, the pellets were resuspended in 30 volumes of buffer.
The test compounds were dissolved in water to make 10 mM stock solutions. Each solution was then diluted (1:100) with buffer (as above) and further taken through seven serial log dilutions to produce test solutions from 10^-5 to 10^-11 M.
Samples were incubated for 60 minutes at 4 °C, then rapidly filtered through Whatman GF/B filters presoaked in 0.5% polyethyleneimine using 3 x 4 mL of ice-cold buffer. The filters are counted in 4 mL of Ecolume® (ICN). Nonspecific binding was determined in the presence of 10 µM (-)-nicotine and values were expressed as a percentage of total binding. IC50 values were determined with the RS-1 (BBN) nonlinear least squares curve-fitting program and IC50 values were converted to Ki values using the Cheng and Prusoff correction (Ki=IC50/(1+[ligand]/Kd of ligand).

Clc1ccc(N2CC3CCC(C2)N3)nc1 [Example 19, 3-(5-chloro-2-pyridinyl)-3,8-diazabicyclo[3.2.1]octane dihydrochloride, reference compound]
Ki: > 10 µM
